Patent US7842700B2, “Crystals of isopropyl ester of N-(2,6-dichlorobenzoyl)-4-[6-(methylamino)methyl-1-methyl-2,4-dioxo-1,4-dihydroquinazoline-3(2H)-yl]-L-phenylalanine hydrochloride, production method thereof and use thereof” (Ajinomoto Co., Inc., priority 2005, dated 2010)

Assay: Pharmacokinetic study by intravenous administration to a rat
Settings: single intravenous dose, 1 mg/mL solution at 1 mL/kg, Wistar rat, plasma

total body clearance (CLtot): 31.5 mL/min/kg
Compound: Cn1c(=O)n(-c2ccc(C[C@H](NC(=O)c3c(Cl)cccc3Cl)C(=O)O)cc2)c(=O)c2ccccc21
